Measured values taken from EP0263506B1, “Anticonvulsant composition containing amino acid derivative and use of said amino acid derivative” (priority 1986, dated 1988).

Tested on: male Carworth Farms #1 mice
Assay: Rotorod Test (Tox), neurologic toxicity
Format: in vivo
Settings: Median Toxic Dose, comparison drugs

CCC1(c2ccccc2)C(=O)NC(=O)NC1=O [phenobarbital]
Tox TD50: 69 mg/kg
